The values that follow come from US10208020B2 (dated 2019).

Protein sequences, listed by entry. Tags and fused reporters are not part of them. Residues count along the entry.
UniProt Q13231, 22-466: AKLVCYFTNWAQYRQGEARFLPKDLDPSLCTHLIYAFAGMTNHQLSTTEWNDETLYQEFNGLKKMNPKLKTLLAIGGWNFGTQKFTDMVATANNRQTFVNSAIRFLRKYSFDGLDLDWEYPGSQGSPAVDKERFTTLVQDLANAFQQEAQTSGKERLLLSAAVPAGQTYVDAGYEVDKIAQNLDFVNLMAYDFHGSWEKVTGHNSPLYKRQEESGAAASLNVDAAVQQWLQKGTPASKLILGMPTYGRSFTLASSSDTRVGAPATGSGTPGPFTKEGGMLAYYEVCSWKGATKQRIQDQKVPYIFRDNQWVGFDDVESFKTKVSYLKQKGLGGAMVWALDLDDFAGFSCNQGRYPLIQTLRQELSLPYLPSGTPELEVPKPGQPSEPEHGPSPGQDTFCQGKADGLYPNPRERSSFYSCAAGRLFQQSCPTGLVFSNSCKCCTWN

One may read the IC50 as the point on the concentration scale where inhibition reaches its midpoint.

In the experiment the target is recombinant human CHIT1 (Homo sapiens (Human), UniProt Q13231). In words: Human CHIT1 activity assay. The experiment is classed as biochemical.

Consider `CS(=O)(=O)N1C[C@H](Cc2ccc(Cl)cc2)N(C2CCN(c3nnc(N)[nH]3)CC2)C[C@@H]1Cc1ccc(Cl)cc1` [Example 36, 5-(4-((2S,5S)-2,5-bis(4-chlorobenzyl)-4-(methylsulfonyl)piperazin-1-yl)piperidin-1-yl)-4H-1,2,4-triazol-3-amine], for which the half-maximal inhibitory concentration (IC50) was in the range of 10 to 100 µM.
